Sequences of proteins named here, by UniProt entry; tags and fusion partners are left off. A change or cut given only in a name is not applied to a line headed by its entry.
UniProt P08482: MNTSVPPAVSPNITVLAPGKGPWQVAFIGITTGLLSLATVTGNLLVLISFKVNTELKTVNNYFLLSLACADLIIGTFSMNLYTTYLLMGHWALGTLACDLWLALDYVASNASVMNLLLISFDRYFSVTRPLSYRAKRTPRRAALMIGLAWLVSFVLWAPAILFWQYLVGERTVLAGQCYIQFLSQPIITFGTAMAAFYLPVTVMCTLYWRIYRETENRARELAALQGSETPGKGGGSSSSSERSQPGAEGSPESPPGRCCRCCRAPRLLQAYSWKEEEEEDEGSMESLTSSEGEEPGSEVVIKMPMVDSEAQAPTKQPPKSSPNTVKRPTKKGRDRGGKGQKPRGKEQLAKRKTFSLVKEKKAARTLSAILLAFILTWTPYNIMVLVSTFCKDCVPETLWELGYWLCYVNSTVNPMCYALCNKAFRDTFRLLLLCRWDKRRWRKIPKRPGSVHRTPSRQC

In US8852876B2, “Label free biosensors and cells” (Corning Incorporated, priority 2008, dated 2014):

Biological target: T1, rat muscarinic receptor subtype 1 (Rattus norvegicus, UniProt P08482)
T1 construct: expressed in transfected cells; host or cells: CHO (M1 CHO)
Test: GPCR agonist-induced mass redistribution in M1 CHO cells (optical LID)
Assay type: cell-based
Conditions: 10 μM; compared with CHO cells

Clc1cccc(Cl)c1N=C1NCCN1 [clonidine]
Ligand-induced response in M1-CHO cells: induced mass redistribution signals
